Assay results reported in publication PMC8156151 (The European Respiratory Journal, 2021).

Tested on: CCL18 (PARC)
Experiment: Plasma biomarker CCL18
Type: in vivo, human
Settings: 10 mg vs placebo, ANCOVA
Experimental: All patients, investigators, sites and study sponsor personnel were blinded to the study group assignments throughout the study. Patients underwent study-specific assessments on days 2, 3, 7, 14 and 15, and a post-study assessment was carried out 26–30 days after the last day of the study period. Assessments included vital signs (supine blood pressure, pulse, oxygen saturation, oral temperature and respiratory rate), spirometry, 12-lead ECG, physical examination, laboratory safety screen (haematology, biochemistry, urinalysis and urinary drugs of abuse screen) and blood sampling for PK measurements. All adverse events and concomitant medications were recorded from the time of the screening visit until the post-study follow-up visit. BAL was performed at day −1 (24 h before the first dose) and at day 14 (2 h after the last dose). […]
BAL cells were separated from fluid by centrifugation, and cells were collected, stained with antibodies (supplementary material) and then fixed before analysis using a LSR Fortessa flow cytometer (Becton Dickinson, Franklin Lakes, NJ, USA). Data were analysed using FlowJo software (Tree Star, Ashland, OR, USA). […] Gal-3 expression (mean fluorescence intensity) was determined from the macrophage gate (supplementary figures S1 and S2). […] Samples were analysed by magnetic Luminex assay (R&D Systems, Minneapolis, MN, USA) or ELISA. […]

OC[C@H]1O[C@@H](S[C@@H]2O[C@H](CO)[C@H](O)[C@H](n3cc(-c4cccc(F)c4)nn3)[C@H]2O)[C@H](O)[C@@H](n2cc(-c3cccc(F)c3)nn2)[C@H]1O [TD139]
CCL18 (PARC) difference in least square means % baseline (95% CI): −35.0 (−65.8– −4.2) % baseline
